# According to PubChem BioAssay AID1920062 (Sanford-Burnham Center for Chemical Genomics, 2024):
# Sequences of proteins named here, by UniProt entry; tags and fusion partners are left off.
# UniProt P20594, whole entry: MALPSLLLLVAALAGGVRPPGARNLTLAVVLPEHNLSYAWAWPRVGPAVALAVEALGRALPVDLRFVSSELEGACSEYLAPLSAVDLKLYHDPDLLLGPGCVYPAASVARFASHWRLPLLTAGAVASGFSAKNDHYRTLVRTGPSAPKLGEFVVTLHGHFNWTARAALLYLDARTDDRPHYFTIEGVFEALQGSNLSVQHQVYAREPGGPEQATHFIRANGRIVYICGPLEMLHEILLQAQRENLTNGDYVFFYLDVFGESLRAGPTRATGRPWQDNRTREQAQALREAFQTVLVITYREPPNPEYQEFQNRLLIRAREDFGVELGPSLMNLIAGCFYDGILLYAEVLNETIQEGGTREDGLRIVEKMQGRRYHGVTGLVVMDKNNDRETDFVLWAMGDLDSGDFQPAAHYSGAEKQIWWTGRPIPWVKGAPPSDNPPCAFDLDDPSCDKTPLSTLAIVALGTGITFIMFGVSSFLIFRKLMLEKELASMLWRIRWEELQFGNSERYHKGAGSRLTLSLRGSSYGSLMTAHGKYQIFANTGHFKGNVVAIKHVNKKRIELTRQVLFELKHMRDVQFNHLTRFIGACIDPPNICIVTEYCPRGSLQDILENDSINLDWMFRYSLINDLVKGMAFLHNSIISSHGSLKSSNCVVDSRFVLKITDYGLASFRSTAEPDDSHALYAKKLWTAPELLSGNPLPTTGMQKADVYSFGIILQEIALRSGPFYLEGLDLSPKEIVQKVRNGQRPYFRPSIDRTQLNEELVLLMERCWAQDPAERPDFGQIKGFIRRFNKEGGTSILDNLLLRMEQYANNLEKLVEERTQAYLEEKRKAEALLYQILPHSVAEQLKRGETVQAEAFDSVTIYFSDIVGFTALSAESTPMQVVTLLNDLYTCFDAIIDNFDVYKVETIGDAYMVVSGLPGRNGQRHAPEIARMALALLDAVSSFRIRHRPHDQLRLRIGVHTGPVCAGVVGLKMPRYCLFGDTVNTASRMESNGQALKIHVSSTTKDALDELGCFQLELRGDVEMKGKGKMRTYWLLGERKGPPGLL
# The entries are a selection whose mix differs from that of the whole data set. The source made the active and inactive calls.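 Rule for the calls: active = activation at 10 µM reaching about 35% in either raw or pattern-adjusted values (limit read from the data); inactive = the rest.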
# Biological target: Atrial natriuretic peptide receptor 2 (Homo sapiens) (UniProt P20594)
# Test: GC-B stimulated cGMP production enhancers – HEK293 GC-B cells, cGMP TR-FRET, EC30 CNP, primary screen (AID 1920062)
# Settings: at 10 µM, stronger effect = higher value, 0% at EC30 CNP, 100% saturating CNP
row,SMILES,activation
1,CCC(=O)N(c1ccccc1)C1(COC)CCN(CCc2cccs2)CC1,inactive: 0.17%
2,CCC(=O)N(c1ccccc1)C1(COC)CCN(CCn2nnn(CC)c2=O)CC1,inactive: 2.22%
